## scFv variants of Ab-14 (light chain) against a SARS-CoV-2 spike peptide

Target: peptide PDVDLGDISGINAS, taken from heptad repeat 2 (HR2) of SARS-CoV-2 spike.

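The starting antibody came from a phage panning campaign against this peptide. This is the validation round: designs drawn from the data on random variants, tested in the same kind of assay. Several design methods are mixed in this list. The scFvs were displayed on barcoded MATa yeast, the peptide on MATalpha yeast. The frequency of each diploid, read from paired DNA barcodes, reflects how well the two displayed proteins bind. A regression on co-assayed BCL2-family reference pairs converts the normalised counts of each replicate to an apparent Kd. The assay was run in six technical replicates.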

Each scFv is VH, the linker GGGGSGGGGSGGGGS, VL, as in the parent Ab-14, and differs from it in the CDRs of the light chain only.
VH: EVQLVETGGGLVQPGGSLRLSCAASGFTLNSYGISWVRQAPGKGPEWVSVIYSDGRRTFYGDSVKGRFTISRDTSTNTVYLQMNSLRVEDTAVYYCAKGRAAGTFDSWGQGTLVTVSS
VL: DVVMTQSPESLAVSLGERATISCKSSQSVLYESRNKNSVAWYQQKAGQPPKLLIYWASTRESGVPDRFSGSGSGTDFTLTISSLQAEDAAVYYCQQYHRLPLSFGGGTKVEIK

Variants are written as CDR1, CDR2 and CDR3 of the light chain (limits as in the source). Parent: KSSQSVLYESRNKNSVA, WASTRES, QQYHRLPLS. Variants here have more than six changes. Each Kd is an estimate from the mating assay, the geometric mean of the replicates in which the pair was seen; lower is stronger. A pair that was not seen in any replicate is written "no signal"; this usually means weak binding, but a binder can also be missed. Entries are sorted by rising average, undetected variants last. The range of this assay differs from that of the first round, and the authors advise against merging the two.

CDR-L1,CDR-L2,CDR-L3,Kd,replicates with signal
ALNQKGFQLSGMRDSIA,HSDTRLA,QQYYRLPLA,660 pM,6 of 6
KVSQLQDYESRNKNSVA,NASQREH,QQYHRLPLS,760 pM,6 of 6
KLVMSELYESRQKNSVA,GASQRES,QQYHRLPLS,980 pM,6 of 6
NSSGPMMFESRNKNSVA,HASTREE,QQYERLPLA,1.2 nM,6 of 6
KISMLQRFQSEAKNNIA,EMSRREE,QQYHRLPLS,1.4 nM,6 of 6
KLQLSMPYESRMKNSVA,HASVRES,QQYHRLPLS,1.5 nM,6 of 6
KVQQSELGESRMFNSVA,NASKRES,QQYHRLPLS,1.5 nM,6 of 6
TVGQVHEMLSRNKNSVA,DANTRES,QQYDRLPLS,1.6 nM,6 of 6
MMSQVTGQGTRHRNNVA,QTSEREI,QQYDRLPLI,1.7 nM,6 of 6
MMSSVLHMLGAKKNSIA,DNQLRAD,QQYHRLPLM,1.7 nM,6 of 6
QLYAVNDLTTKNSNNVA,EQTTREN,QQYHRLPLS,1.7 nM,6 of 6
KISTQIPEFEMDDNAIA,EATLRET,QHYQRLPLS,1.9 nM,6 of 6
NISYEQALSTNSVNNVA,QASVRAP,QYYQRLPLC,2.0 nM,6 of 6
KLSQSMLYESRNDNSVA,QASTRED,QDYHRLPLT,2.4 nM,6 of 6
ALSQSVGGESRNPNSVA,HASTREQ,QQYHRLPLS,2.6 nM,6 of 6
SIGGFMKSSMAHMNSVA,DMTNRED,QQYDRLPLS,3.2 nM,6 of 6
HMSMLTLTGMRQKNSVA,QMTTREN,QQYDRLPLV,3.3 nM,6 of 6
TISQMTSLFSQTINNVA,EVSTREN,QQYDRLPLM,3.5 nM,6 of 6
KISGLSNHQSSVHNNVA,ENVTRVQ,QQYFRLPLS,3.6 nM,6 of 6
MVNGIMDHLSKNTNNVA,EQTTRNE,QQYDRLPLS,3.8 nM,6 of 6
KSSCAVYYGDRNKMSVA,DASTRES,QQYHRLPLS,4.6 nM,6 of 6
KFSQSVNFFGHAINSVA,EMETREN,QQYDRLPLS,4.7 nM,6 of 6
KIGATLNTLYEQKNNVA,DLVMRES,QQYHRLPLS,6.0 nM,6 of 6
HFDQTEQEGIQDKNSVA,QGSVVAS,QHYSKLPLS,6.6 nM,6 of 6
GIQSQMDGTSAVKENIA,NEAERLR,QQYQRLPLT,7.9 nM,6 of 6
HFSQETMEFMSQNKAIA,EVTTTMD,QQYARLPFI,11 nM,6 of 6
MFSQSVMYGSFYRNSVA,QTSTRET,QQYDRLPLS,12 nM,6 of 6
RVQLNSGEIDMHWYNIA,SASIRAD,QQYFRLPIF,12 nM,6 of 6
MVKMENEEFAQDKHSVA,EAVERES,QQYHRLPII,14 nM,6 of 6
KLRLHNLMFYENENSIA,GVSNRAY,QQYYRLPLN,16 nM,6 of 6
KSSWSVEYEDRLSNSVA,NASQREW,QQYHRLPLS,16 nM,6 of 6
KLSSVTGHMSMAKNNVA,EMVTREK,QQYNRLPLS,17 nM,6 of 6
SLMQVPGYESNNKNSIA,DLRTRES,QQYHRLPLS,18 nM,6 of 6
QVMGLNGVAMSTHDSIA,QEETRLD,QQYHRLPLS,23 nM,4 of 6
WLSMSVMQESRNKNSVA,SASTREL,QQYHRLPLS,25 nM,6 of 6
MLSQMTGLGMKASNSVA,QASMRFD,QQYFRLPLI,32 nM,6 of 6
QFDLHHKQIETIESAVA,ETSVRAD,QSYDRLPLS,56 nM,6 of 6
MISMNIYGVYRNRDNVA,HASMREN,QCYDRLPLS,64 nM,6 of 6
KLRREADGWNRNEWNIA,DADHRGA,QQYSHLPLC,100 nM,6 of 6
MISQIYNMGTFAINSVA,QASIRNA,QQYDRLPLM,110 nM,6 of 6
KVSEFTRGLMSRQDSIA,DNVTRNR,QQYDRLPLS,110 nM,1 of 6
TISMFMDNLYSNRNNVA,DTSTLGS,QSYDRLPLS,150 nM,4 of 6
KLLQSTVIESFNKNNVA,EMTTRES,QSYDRLPLS,310 nM,2 of 6
MISQLHNMGTFAINSVA,QASIRNA,QQYDRLPLT,no signal,0 of 6
TVTQMAMTGMKNKRSVA,NAETRES,QQYHRLPLI,no signal,0 of 6
KITFQGRLYDAHWDSIA,QTNLYEQ,QQYDRLPLD,no signal,0 of 6
KVSEFMKGLMMRKDSIA,DNTTRES,QQYDRLPLS,no signal,0 of 6
KVEIFMWTMDNQNQHIA,NGAEERP,QQYQRLPLS,no signal,0 of 6

Picked from the list: the 3 lowest averages where every replicate gave a value.

| CDR-L1 | CDR-L2 | CDR-L3 | Kd | replicates with signal |
|---|---|---|---|---|
| ALNQKGFQLSGMRDSIA | HSDTRLA | QQYYRLPLA | 660 pM | 6 of 6 |
| KVSQLQDYESRNKNSVA | NASQREH | QQYHRLPLS | 760 pM | 6 of 6 |
| KLVMSELYESRQKNSVA | GASQRES | QQYHRLPLS | 980 pM | 6 of 6 |

In the paper, a design with two or fewer of six values counts as a poor binder. Background: pairings of all light chain designs with three empty control strains gave a value in 4% of cases (median 430 nM, 5th percentile 38 nM). Values in that range, when seen in few replicates, are hard to tell from nonspecific mating. The parent sequence was in this pool as ten entries: three were never detected, three once, and four in most replicates, with averages from 2.2 nM to 240 nM.

The measurements come from Li et al. 2023 (doi:10.1038/s41467-023-39022-2) through the FLAb antibody collection.